From ChEMBL document CHEMBL4229498 (Bioorg Med Chem, 2018)

Protein sequences, listed by entry. Tags and fused reporters are not part of them.
UniProt P21554, whole entry: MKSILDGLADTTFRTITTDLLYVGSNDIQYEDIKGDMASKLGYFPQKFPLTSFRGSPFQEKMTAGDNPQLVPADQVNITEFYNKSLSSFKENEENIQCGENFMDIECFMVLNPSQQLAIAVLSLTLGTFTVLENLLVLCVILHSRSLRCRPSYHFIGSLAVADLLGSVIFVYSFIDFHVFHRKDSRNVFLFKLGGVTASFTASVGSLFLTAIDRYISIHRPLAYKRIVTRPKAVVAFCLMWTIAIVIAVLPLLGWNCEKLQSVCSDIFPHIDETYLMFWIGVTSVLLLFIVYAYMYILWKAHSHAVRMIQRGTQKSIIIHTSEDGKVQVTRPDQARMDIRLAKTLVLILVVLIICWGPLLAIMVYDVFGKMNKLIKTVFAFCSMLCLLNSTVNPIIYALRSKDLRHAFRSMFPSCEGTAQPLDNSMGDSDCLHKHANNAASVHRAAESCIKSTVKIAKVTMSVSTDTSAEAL

Biological target: Cannabinoid receptor 1 (Homo sapiens, UniProt P21554)
Assay: Displacement of [3H]-CP55940 from human CB1 receptor expressed in CHO cell membranes after 1 hr by liquid scintillation spectrometry

O=C(C1CCSCC1)N1CCN(c2ncnc3c2nc(-c2ccccc2Cl)n3-c2ccc(Cl)cc2)CC1
Ki: 2 nM
